Test system: C. elegans nematodes at the L1 stage
Test: Nematicide efficacy of CED-4 peptides, 96-well incubation of C. elegans L1, viability by probe touch
Type: in vivo, Caenorhabditis elegans
Details: three days, about 37° C.
Experimental: Assays were performed using 96-well plates. C. elegans nematodes at the L1 stage (refer to FIG. 1) were incubated in each of the 96 wells for three days at about 37° C. at about 0.8 mg/ml peptide concentration for each tested CED-4 peptide. Each of the selected CED-4 peptides were diluted in distilled water to 0.8 mg/ml peptide concentration. Nematodes—numbering between two nematodes and four nematodes—averaging about three nematodes were incubated in 100 μl of CED-4 peptide solution at about 0.8 mg/ml concentration in each well. After a three-day incubation period, the exposed C. elegans nematodes were checked for viability under a dissecting microscope. […]
Each separate well containing nematodes was considered an independent trial experiment. A well in which all of the incubated nematodes were either clearly alive or clearly dead at the end of the incubation period was recorded as one successful experiment. A well in which some or all of the incubated nematodes could not clearly be determined as alive or dead at the end of the incubation period was recorded as one unsuccessful experiment. […]
Each separate well containing nematodes was considered an independent trial experiment. A well in which all of the incubated nematodes were either clearly alive or clearly dead at the end of the incubation period was recorded as one successful experiment. […]

bovine serum albumin [BSA, reference compound]
Percentage % Dead (mortality rate) (0.4 mg/ml): 0%
Percentage % Dead (mortality rate) (0.8 mg/ml): 0%
